Target: BIKE (Homo sapiens, UniProt Q9NSY1)
Assay: biochemical
Assay type: binding

Protein sequences, listed by entry. Tags and fused reporters are not part of them.
UniProt Q9NSY1, whole entry: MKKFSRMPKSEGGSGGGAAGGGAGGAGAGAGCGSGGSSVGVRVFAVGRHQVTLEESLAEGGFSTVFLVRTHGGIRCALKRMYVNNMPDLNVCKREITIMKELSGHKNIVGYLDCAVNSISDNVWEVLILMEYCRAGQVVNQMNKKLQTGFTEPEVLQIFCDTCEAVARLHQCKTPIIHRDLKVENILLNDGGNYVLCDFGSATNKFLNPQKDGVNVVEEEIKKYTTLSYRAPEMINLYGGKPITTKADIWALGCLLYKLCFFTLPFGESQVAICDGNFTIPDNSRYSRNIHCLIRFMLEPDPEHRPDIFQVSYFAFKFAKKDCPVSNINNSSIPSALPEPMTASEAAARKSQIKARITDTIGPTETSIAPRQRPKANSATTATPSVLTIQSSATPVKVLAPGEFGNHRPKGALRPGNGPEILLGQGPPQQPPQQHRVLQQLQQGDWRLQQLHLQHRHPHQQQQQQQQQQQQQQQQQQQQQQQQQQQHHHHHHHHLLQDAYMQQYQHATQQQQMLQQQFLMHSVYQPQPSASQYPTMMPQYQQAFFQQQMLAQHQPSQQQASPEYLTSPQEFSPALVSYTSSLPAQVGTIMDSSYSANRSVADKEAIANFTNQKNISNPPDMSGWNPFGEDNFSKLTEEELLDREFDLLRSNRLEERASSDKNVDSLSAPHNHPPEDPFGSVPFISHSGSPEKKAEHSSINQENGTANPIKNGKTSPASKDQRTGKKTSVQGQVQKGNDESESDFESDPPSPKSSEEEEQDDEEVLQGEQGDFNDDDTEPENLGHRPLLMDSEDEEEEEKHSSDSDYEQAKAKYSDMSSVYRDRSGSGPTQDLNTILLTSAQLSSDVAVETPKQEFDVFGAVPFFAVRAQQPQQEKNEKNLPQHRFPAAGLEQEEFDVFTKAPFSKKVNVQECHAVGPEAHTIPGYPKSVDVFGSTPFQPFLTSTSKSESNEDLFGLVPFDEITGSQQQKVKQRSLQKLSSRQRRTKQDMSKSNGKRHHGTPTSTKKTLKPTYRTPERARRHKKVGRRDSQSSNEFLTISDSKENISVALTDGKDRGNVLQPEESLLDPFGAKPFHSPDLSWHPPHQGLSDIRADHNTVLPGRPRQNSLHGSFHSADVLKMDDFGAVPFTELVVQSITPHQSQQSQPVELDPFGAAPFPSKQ

## CCS(=O)(=O)N1CC(CC#N)(n2cc(-c3ncnc4[nH]ccc34)cn2)C1 [Baricitinib]
  Kd: 20 nM

— article PMC7300657 (EMBO Molecular Medicine, 2020)
